This note sets out measurements from article PMC9837035 (Nature Communications, 2023).

In general, IC50 refers to the concentration that gives 50% inhibition. Read a low IC50 as greater potency in that assay.

Where “and” joins values, the source holds several entries; their conditions need not be identical. Equal values may be shown once.

The subject of assay [1] is β- and γ-globin mRNAs in CD34+-derived cells. The assay can be described thus: RT-qPCR of β- and γ-globin in CD34+-derived cells. The assay is classed as cell-based, human. Here is the method:
HUDEP-2 cells and HiDEP-1 cells were grown in Stemline II Hematopoietic Stem Cell Expansion Medium (Sigma) supplemented with 50 ng/mL recombinant stem cell factor (SCF; R&D systems), 3 IU/mL recombinant erythropoietin (EPO; Kyowa Kirin), 1 μM dexamethasone (Dex; Sigma), and 1 μg/mL doxycycline (Sigma). A total of 1 × 10^5 human CD34^+ progenitor cells derived from bone marrow or peripheral blood (Lonza) were cultured on 35-mm dishes (BD Falcon) in StemSpan SFEMII medium with 50 ng/mL SCF, 5 IU/mL EPO, and 10 ng /mL interleukin 3 (IL-3; R&D systems). The medium was changed on day 4 to SCF, EPO, and 1 μM Dex, and the cells were transferred to 60-mm dishes (BD Falcon). Seven days after the onset of differentiation, cells were counted and 1 × 10^6 cells were re-plated on 100-mm dishes (BD Falcon) with SCF, EPO, and Dex. The rat myoblast cell line H9c2, HEK293T, and PLAT-E cells were maintained in Dulbecco’s modified Eagle’s medium (Thermo Fisher Scientific) supplemented with 10% heat-inactivated fetal bovine serum (FBS) and penicillin/streptomycin. All cells were cultured at 37 °C under 5% CO2.
Total cellular RNA was prepared using the Tissue Total RNA Mini Kit (FAVORGEN), and cDNA was synthesized using ReverTra Ace Master Mix (TOYOBO). Expression of target genes was analyzed using THUNDERBIRD SYBR qPCR Mix (TOYOBO) on a CFX Connect Real Time System (Bio-Rad). The qPCR data were acquired on CFX Maestro (Bio-Rad). Primers are listed in Supplementary Table 10. GAPDH was used as a reference. Primers were purchased from INTEGRATED DNA TECHNOLOGIES or FASMAC.

The target of another assay is T1, NSD2 (E1099K) (Homo sapiens, UniProt O96028, E1099K).
T1 sequence (O96028 1-1365 E1099K): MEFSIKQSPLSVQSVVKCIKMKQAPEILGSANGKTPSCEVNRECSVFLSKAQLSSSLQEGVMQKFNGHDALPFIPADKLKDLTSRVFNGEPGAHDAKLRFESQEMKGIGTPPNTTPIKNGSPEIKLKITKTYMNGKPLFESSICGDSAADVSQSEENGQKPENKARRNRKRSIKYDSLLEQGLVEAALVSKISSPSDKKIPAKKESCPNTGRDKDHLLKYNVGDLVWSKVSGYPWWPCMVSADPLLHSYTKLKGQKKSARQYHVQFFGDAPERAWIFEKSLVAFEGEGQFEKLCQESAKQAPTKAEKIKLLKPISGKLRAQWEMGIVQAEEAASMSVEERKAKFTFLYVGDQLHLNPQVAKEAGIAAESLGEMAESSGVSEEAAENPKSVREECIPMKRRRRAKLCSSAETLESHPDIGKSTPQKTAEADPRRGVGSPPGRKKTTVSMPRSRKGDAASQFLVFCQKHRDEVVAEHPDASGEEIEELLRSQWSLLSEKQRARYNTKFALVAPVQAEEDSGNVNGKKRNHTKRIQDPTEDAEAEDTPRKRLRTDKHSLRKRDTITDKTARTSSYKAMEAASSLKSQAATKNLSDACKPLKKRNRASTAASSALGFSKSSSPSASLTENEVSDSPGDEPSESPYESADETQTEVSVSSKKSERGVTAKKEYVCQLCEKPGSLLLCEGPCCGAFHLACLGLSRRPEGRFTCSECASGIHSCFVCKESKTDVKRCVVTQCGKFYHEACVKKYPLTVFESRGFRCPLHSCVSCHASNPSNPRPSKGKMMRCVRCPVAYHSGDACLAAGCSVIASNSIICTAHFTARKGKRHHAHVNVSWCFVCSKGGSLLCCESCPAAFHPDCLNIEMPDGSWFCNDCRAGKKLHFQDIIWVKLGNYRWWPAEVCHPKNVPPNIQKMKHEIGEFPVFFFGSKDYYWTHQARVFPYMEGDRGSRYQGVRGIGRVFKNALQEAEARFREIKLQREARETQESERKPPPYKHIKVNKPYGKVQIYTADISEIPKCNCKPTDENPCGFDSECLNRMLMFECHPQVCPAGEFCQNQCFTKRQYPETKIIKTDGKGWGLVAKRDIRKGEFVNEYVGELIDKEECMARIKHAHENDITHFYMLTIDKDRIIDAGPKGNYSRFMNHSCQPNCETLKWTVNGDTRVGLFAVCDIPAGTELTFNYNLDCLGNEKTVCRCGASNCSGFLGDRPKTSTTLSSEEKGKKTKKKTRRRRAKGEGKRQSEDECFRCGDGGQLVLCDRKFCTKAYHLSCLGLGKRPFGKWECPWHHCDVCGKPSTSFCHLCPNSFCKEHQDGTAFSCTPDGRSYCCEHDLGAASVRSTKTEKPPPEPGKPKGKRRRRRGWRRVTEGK
The assay can be described thus: Radioisotope-based methyltransferase assay (selectivity). The note with it: 1 μM SAM.

In the case of `Cc1c(C(=O)NC(CCC2CC2)C(=O)Nc2ccc(C#N)cc2)[nH]c2c1C(=O)CC(C)(C)C2` (stereo not drawn) [RK-701], the “Relative expression of β-globin mRNA” value in assay [1] (day 10, 0.03 μM) is 1.223 and 0.7981 and 0.7056; in assay [1] (day 10, 0.3 μM) it was 0.5093 and 0.3419 and 0.622; in assay [1] (day 10, 1 μM), 0.5724 and 0.4098 and 0.587. Moreover, the “Relative expression of γ-globin mRNA” value in assay [1] (day 10, 1 μM) was 13.541 and 15.6231 and 17.881; in assay [1] (day 10, 3 μM), 10.2007 and 14.1812 and 14.9315.
At NSD2 (E1099K), `Nc1ncnc2c1ncn2[C@@H]1O[C@H](CSCC[C@H](N)C(=O)O)[C@@H](O)[C@H]1O` [SAH, S-(5'-Adenosyl)-L-homocysteine, reference compound] came in with an IC50 of 6.5 µM.
